# Experimental data as given in patent US20050203174A1, “Combination therapies using leptomycin B” (Kosan Biosciences, Inc., priority 2004, published 2005).
# Test system: colon cancer cell line DLD-1
# Assay: Cell viability assay (CellTiter-Glo) and combination effect analysis of leptomycin B plus co-agent
# Assay type: cell-based, Human
# Conditions: combination with leptomycin B, DLD-1 cells, average CI over fraction affected 0.2 to 0.9
# Procedure: The efficacy of a combination of leptomycin B and specific chemotherapeutic co-agents was determined. The additive, synergistic, or antagonistic effect of the combination of leptomycin B and a co-agent was calculated for each administration regimen using Calcusyn software (Biosoft, Cambridge, United Kingdom). This software calculates a combination index using the following algorithm: CI=[D]1/[Dx]1+[D]2/[Dx]2 where • CI is the combination index; • [D]1 and [D]2 are the concentrations of the two agents being tested (i.e., LMB and the co-agent) that, in combination provide a response of x % in the assay; and • [Dx]1 and [Dx]2 are the concentrations of the two agents that, when used alone, produce a response of x % in the assay.
# A CI value of one means the combined effect of the two agents is additive. A CI value of less than one means that the two agents act synergistically. A CI value of greater than one means that the two agents act antagonistically.
# The area under the curve where the fraction affected of cells (FA) ranged from 0.2 to 0.9 was calculated, to generate average CI values as shown in Table 1 for colon cancer cell line DLD-1.
# Human colon adenocarcinoma cell line, DLD-1, was obtained from American Type Culture Collection (Manassas, Va.). […] Leptomycin B was produced by fermentation of a high producing isolate from Streptomyces sp. […] LMB is also available from commercial sources, such as Sigma-Aldrich. Other anti-cancer agents were either purchased commercially (e.g., from Sigma Chemical Co. (St. Louis, Mo.) or from Sequoia Research Products (Oxford, UK)).
# Cells were seeded in duplicate in 96-well microtiter plates at a density of 4,000 cells per well and allowed to attach overnight. […] Cell viability was determined using the CellTiter-Glo luminescent cell viability assay (Promega). […] Cell viability was determined by the CellTiter-Glo luminescent cell viability assay. Synergism, additivity, or antagonism was determined by median effect analysis using the combination index (CI) calculated using Calcusyn (Biosoft, Cambridge, UK), as described above.
substance,measurement,setting,value
trastuzumab,"Combination Index, LMB First","24 hours of LMB, then drug added and incubated for 48 hours",0.84 ± 0.09
same,"Combination Index, Co-Agent First",drug alone for 24 hours followed by addition of LMB for 48 hours,0.99 ± 0.07
same,"Combination Index, Simultaneous","simultaneous exposure to LMB and drug for 72 hours, constant ratio of IC50s",0.87 ± 0.07
